## CycPeptMPDB entries from one study

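Conditions beyond the assay type are not listed; see the original paper. Other peptides of the study may be missing here. Entries at the database's floor value (log10 P of -10) are not listed.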

PAMPA measures passive passage through an artificial lipid membrane.
Permeability is given as log10 of P in cm/s; higher (less negative) is more permeable.

Listed for CC(=O)N1CCC[C@@H]1C(=O)N(C)[C@H](CC(C)C)C(=O)N[C@@H]1C(=O)N[C@@H](CC(C)C)C(=O)N[C@@H](CC(C)C)C(=O)N(C)[C@H](CC(C)C)C(=O)N[C@@H](C)C(=O)N[C@@H](CC(C)C)C(=O)N2CCC[C@H]2C(=O)O[C@@H]1C: PAMPA -6.63 (log10 cm/s). For CC(=O)N1CCC[C@@H]1C(=O)N(C)[C@@H](CC(C)C)C(=O)N[C@@H]1C(=O)N(C)[C@H](CC(C)C)C(=O)N(C)[C@H](CC(C)C)C(=O)N(C)[C@H](CC(C)C)C(=O)N(C)[C@H](C)C(=O)N[C@@H](CC(C)C)C(=O)N2CCC[C@H]2C(=O)O[C@@H]1C the data give PAMPA -5.09 (log10 cm/s). The entry for CC(=O)N1CCC[C@@H]1C(=O)N(C)[C@H](CC(C)C)C(=O)N[C@@H]1C(=O)N[C@H](CC(C)C)C(=O)N[C@H](CC(C)C)C(=O)N(C)[C@@H](CC(C)C)C(=O)N(C)[C@@H](C)C(=O)N[C@H](CC(C)C)C(=O)N2CCC[C@H]2C(=O)O[C@@H]1C lists PAMPA -5.87 (log10 cm/s). CC(=O)N1CCC[C@H]1C(=O)N[C@@H]1C(=O)N[C@H](CC(C)C)C(=O)N[C@H](CC(C)C)C(=O)N(C)[C@H](CC(C)C)C(=O)N(C)[C@@H](CC(C)C)C(=O)N(C)[C@H](C)C(=O)N[C@@H](CC(C)C)C(=O)N2CCC[C@@H]2C(=O)O[C@@H]1C is reported with PAMPA -5.11 (log10 cm/s). Listed for CC(=O)N1CCC[C@@H]1C(=O)N(C)[C@@H](CC(C)C)C(=O)N[C@@H]1C(=O)N(C)[C@H](CC(C)C)C(=O)N(C)[C@H](CC(C)C)C(=O)N[C@H](CC(C)C)C(=O)N(C)[C@@H](C)C(=O)N[C@H](CC(C)C)C(=O)N2CCC[C@H]2C(=O)O[C@@H]1C: PAMPA -5.42 (log10 cm/s). CC(=O)N1CCC[C@H]1C(=O)N(C)[C@@H](CC(C)C)C(=O)N[C@@H]1C(=O)N[C@H](CC(C)C)C(=O)N(C)[C@H](CC(C)C)C(=O)N(C)[C@@H](CC(C)C)C(=O)N(C)[C@@H](C)C(=O)N[C@H](CC(C)C)C(=O)N2CCC[C@@H]2C(=O)O[C@@H]1C is reported with PAMPA -5.93 (log10 cm/s). Listed for CC(=O)N1CCC[C@@H]1C(=O)N(C)[C@H](CC(C)C)C(=O)N[C@@H]1C(=O)N(C)[C@@H](CC(C)C)C(=O)N[C@@H](CC(C)C)C(=O)N(C)[C@H](CC(C)C)C(=O)N(C)[C@@H](C)C(=O)N[C@@H](CC(C)C)C(=O)N2CCC[C@@H]2C(=O)O[C@@H]1C: PAMPA -5.41 (log10 cm/s). For CC(=O)N1CCC[C@H]1C(=O)N(C)[C@H](CC(C)C)C(=O)N[C@@H]1C(=O)N(C)[C@@H](CC(C)C)C(=O)N(C)[C@@H](CC(C)C)C(=O)N[C@H](CC(C)C)C(=O)N(C)[C@H](C)C(=O)N[C@H](CC(C)C)C(=O)N2CCC[C@@H]2C(=O)O[C@@H]1C the data give PAMPA -5.73 (log10 cm/s).

The entry for CC(=O)N1CCC[C@H]1C(=O)N(C)[C@H](CC(C)C)C(=O)N[C@@H]1C(=O)N(C)[C@H](CC(C)C)C(=O)N(C)[C@@H](CC(C)C)C(=O)N(C)[C@@H](CC(C)C)C(=O)N(C)[C@@H](C)C(=O)N[C@@H](CC(C)C)C(=O)N2CCC[C@H]2C(=O)O[C@@H]1C lists PAMPA -5.09 (log10 cm/s). The entry for CC(=O)N1CCC[C@H]1C(=O)N(C)[C@H](CC(C)C)C(=O)N[C@@H]1C(=O)N[C@H](CC(C)C)C(=O)N(C)[C@H](CC(C)C)C(=O)N[C@H](CC(C)C)C(=O)N(C)[C@H](C)C(=O)N[C@H](CC(C)C)C(=O)N2CCC[C@H]2C(=O)O[C@@H]1C lists PAMPA -5.28 (log10 cm/s). CC(=O)N1CCC[C@@H]1C(=O)N(C)[C@@H](CC(C)C)C(=O)N[C@@H]1C(=O)N[C@H](CC(C)C)C(=O)N[C@H](CC(C)C)C(=O)N(C)[C@H](CC(C)C)C(=O)N[C@H](C)C(=O)N[C@H](CC(C)C)C(=O)N2CCC[C@H]2C(=O)O[C@@H]1C is reported with PAMPA -5.78 (log10 cm/s). CC(=O)N1CCC[C@@H]1C(=O)N(C)[C@@H](CC(C)C)C(=O)N[C@@H]1C(=O)N(C)[C@H](CC(C)C)C(=O)N[C@H](CC(C)C)C(=O)N[C@H](CC(C)C)C(=O)N(C)[C@H](C)C(=O)N[C@H](CC(C)C)C(=O)N2CCC[C@@H]2C(=O)O[C@@H]1C has PAMPA -6.47 (log10 cm/s). CC(=O)N1CCC[C@@H]1C(=O)N(C)[C@@H](CC(C)C)C(=O)N[C@@H]1C(=O)N(C)[C@H](CC(C)C)C(=O)N[C@H](CC(C)C)C(=O)N(C)[C@H](CC(C)C)C(=O)N[C@H](C)C(=O)N[C@@H](CC(C)C)C(=O)N2CCC[C@@H]2C(=O)O[C@@H]1C is reported with PAMPA -5.79 (log10 cm/s). The entry for CC(=O)N1CCC[C@H]1C(=O)N(C)[C@H](CC(C)C)C(=O)N[C@@H]1C(=O)N[C@@H](CC(C)C)C(=O)N[C@@H](CC(C)C)C(=O)N(C)[C@@H](CC(C)C)C(=O)N(C)[C@@H](C)C(=O)N[C@@H](CC(C)C)C(=O)N2CCC[C@H]2C(=O)O[C@@H]1C lists PAMPA -5.94 (log10 cm/s). The entry for CC(=O)N1CCC[C@H]1C(=O)N(C)[C@H](CC(C)C)C(=O)N[C@@H]1C(=O)N[C@H](CC(C)C)C(=O)N(C)[C@@H](CC(C)C)C(=O)N[C@@H](CC(C)C)C(=O)N[C@@H](C)C(=O)N[C@H](CC(C)C)C(=O)N2CCC[C@@H]2C(=O)O[C@@H]1C lists PAMPA -5.94 (log10 cm/s). For CC(=O)N1CCC[C@H]1C(=O)N(C)[C@@H](CC(C)C)C(=O)N[C@@H]1C(=O)N(C)[C@@H](CC(C)C)C(=O)N(C)[C@H](CC(C)C)C(=O)N(C)[C@@H](CC(C)C)C(=O)N(C)[C@@H](C)C(=O)N[C@H](CC(C)C)C(=O)N2CCC[C@@H]2C(=O)O[C@@H]1C the data give PAMPA -5.68 (log10 cm/s).

CC(=O)N1CCC[C@H]1C(=O)N(C)[C@H](CC(C)C)C(=O)N[C@@H]1C(=O)N[C@@H](CC(C)C)C(=O)N[C@@H](CC(C)C)C(=O)N[C@@H](CC(C)C)C(=O)N(C)[C@@H](C)C(=O)N[C@@H](CC(C)C)C(=O)N2CCC[C@@H]2C(=O)O[C@@H]1C has PAMPA -6.31 (log10 cm/s). The entry for CC(=O)N1CCC[C@H]1C(=O)N(C)[C@H](CC(C)C)C(=O)N[C@@H]1C(=O)N[C@H](CC(C)C)C(=O)N[C@H](CC(C)C)C(=O)N[C@H](CC(C)C)C(=O)N[C@@H](C)C(=O)N[C@H](CC(C)C)C(=O)N2CCC[C@@H]2C(=O)O[C@@H]1C lists PAMPA -8.00 (log10 cm/s). Listed for CC(=O)N1CCC[C@H]1C(=O)N(C)[C@H](CC(C)C)C(=O)N[C@@H]1C(=O)N(C)[C@H](CC(C)C)C(=O)N[C@H](CC(C)C)C(=O)N(C)[C@@H](CC(C)C)C(=O)N(C)[C@@H](C)C(=O)N[C@@H](CC(C)C)C(=O)N2CCC[C@@H]2C(=O)O[C@@H]1C: PAMPA -5.37 (log10 cm/s). CC(=O)N1CCC[C@@H]1C(=O)N(C)[C@@H](CC(C)C)C(=O)N[C@@H]1C(=O)N(C)[C@@H](CC(C)C)C(=O)N(C)[C@@H](CC(C)C)C(=O)N[C@@H](CC(C)C)C(=O)N[C@@H](C)C(=O)N[C@H](CC(C)C)C(=O)N2CCC[C@H]2C(=O)O[C@@H]1C has PAMPA -7.37 (log10 cm/s).

Extract of 2 entries:

Listed for CC(=O)N1CCC[C@@H]1C(=O)N(C)[C@@H](CC(C)C)C(=O)N[C@@H]1C(=O)N(C)[C@H](CC(C)C)C(=O)N(C)[C@H](CC(C)C)C(=O)N(C)[C@H](CC(C)C)C(=O)N(C)[C@H](C)C(=O)N[C@@H](CC(C)C)C(=O)N2CCC[C@H]2C(=O)O[C@@H]1C: PAMPA -5.09 (log10 cm/s).
Listed for CC(=O)N1CCC[C@H]1C(=O)N(C)[C@@H](CC(C)C)C(=O)N[C@@H]1C(=O)N(C)[C@@H](CC(C)C)C(=O)N(C)[C@H](CC(C)C)C(=O)N(C)[C@@H](CC(C)C)C(=O)N(C)[C@@H](C)C(=O)N[C@H](CC(C)C)C(=O)N2CCC[C@@H]2C(=O)O[C@@H]1C: PAMPA -5.68 (log10 cm/s).

Collected by the curators of CycPeptMPDB (Li et al. 2023) from Kelly et al. 2021, doi:10.1021/jacs.0c06115.